# Results from patent US20260124309A1, “STAT6 DEGRADERS AND USES THEREOF” (Kymera Therapeutics, Inc., priority 2023, published 2026).
# Sequences of proteins named here, by UniProt entry; tags and fusion partners are left off. Residues count along the entry.
# UniProt P42226, whole entry: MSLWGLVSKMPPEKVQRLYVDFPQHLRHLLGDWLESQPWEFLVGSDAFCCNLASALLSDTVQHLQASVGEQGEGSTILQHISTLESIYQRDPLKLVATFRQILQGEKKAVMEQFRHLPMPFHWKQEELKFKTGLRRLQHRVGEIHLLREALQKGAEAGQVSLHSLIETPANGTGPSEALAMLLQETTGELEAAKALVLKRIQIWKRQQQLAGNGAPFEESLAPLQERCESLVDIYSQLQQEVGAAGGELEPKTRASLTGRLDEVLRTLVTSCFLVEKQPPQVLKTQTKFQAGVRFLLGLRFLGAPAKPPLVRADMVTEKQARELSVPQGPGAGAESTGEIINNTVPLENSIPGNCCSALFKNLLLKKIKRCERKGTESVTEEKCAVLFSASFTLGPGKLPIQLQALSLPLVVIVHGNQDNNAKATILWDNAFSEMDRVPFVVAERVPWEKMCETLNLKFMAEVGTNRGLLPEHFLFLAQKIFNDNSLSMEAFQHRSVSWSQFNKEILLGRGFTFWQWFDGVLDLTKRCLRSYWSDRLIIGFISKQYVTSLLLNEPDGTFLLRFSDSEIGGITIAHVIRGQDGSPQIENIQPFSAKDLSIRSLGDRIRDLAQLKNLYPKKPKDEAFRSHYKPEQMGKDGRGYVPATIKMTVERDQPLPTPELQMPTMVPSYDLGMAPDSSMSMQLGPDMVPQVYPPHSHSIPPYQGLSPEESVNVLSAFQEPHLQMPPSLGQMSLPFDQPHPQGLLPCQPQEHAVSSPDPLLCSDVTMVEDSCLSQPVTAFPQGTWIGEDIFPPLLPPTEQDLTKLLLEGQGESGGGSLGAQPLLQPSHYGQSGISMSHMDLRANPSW
# UniProt P42226, 123-632 limits assumed: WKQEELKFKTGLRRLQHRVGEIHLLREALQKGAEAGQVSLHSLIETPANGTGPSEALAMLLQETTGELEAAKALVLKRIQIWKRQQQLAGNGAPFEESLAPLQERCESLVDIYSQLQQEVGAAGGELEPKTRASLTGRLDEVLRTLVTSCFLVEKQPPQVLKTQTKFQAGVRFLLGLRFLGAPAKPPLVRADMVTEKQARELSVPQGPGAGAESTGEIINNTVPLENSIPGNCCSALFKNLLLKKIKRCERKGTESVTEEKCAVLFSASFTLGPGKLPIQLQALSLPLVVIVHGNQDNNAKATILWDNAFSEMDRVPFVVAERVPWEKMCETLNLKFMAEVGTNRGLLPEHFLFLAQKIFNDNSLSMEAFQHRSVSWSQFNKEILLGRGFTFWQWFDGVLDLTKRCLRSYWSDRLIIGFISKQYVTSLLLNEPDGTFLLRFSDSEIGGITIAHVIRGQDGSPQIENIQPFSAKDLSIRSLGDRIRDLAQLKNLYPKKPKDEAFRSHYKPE
# pIC50: −log10 of the molar value.
# Key:
# [1] = molecular target: STAT6 (Homo sapiens, UniProt P42226); assay: STAT6 MSD degradation in A549 cells; conditions: for DC50: read-out: STAT6 MSD degradation DC50 (nM) 24 h
# Outline: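 A549 cells treated with a 9-point 1:3 series (top up to 10 uM) for 4 to 24 hours at 37° C., then lysed in RIPA. STAT6 quantified by sandwich MSD electrochemiluminescence immunoassay. DC50 and Dmax from four-parameter nonlinear fit, reported as letter-code bins.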
# [2] = molecular target: STAT6-HiBiT (Homo sapiens, UniProt P42226); assay: STAT6 HiBiT degradation in A549 (STAT6-HiBiT) cells; conditions: for DC50: read-out: STAT6 HiBiT degradation DC50 (nM) 24 h
# [3] = molecular target: biotinylated truncated STAT6 (123-632)-avi (Homo sapiens, UniProt P42226); assay: STAT6 HTRF binding assay; conditions: read-out: STAT6 HTRF: Average IC50; HTRF binding, 0.15 nM biotinylated truncated STAT6 (123-632)-avi, 20 nM fluorescein-labeled probe
SMILES,STAT6 MSD degradation Dmax % 24 h [1],DC50 [1],STAT6 HiBiT degradation Dmax % 24 h [2],DC50 [2],pIC50 [3]
Cc1nn(C2CCC(=O)NC2=O)c2cccc(CCN3CC[C@H](c4cc(F)c(-c5cc(C6=CCCN(C(=O)CCn7cccn7)C6)c(F)c6[nH]c(C(=O)N(C)C)cc56)cc4F)C(F)(F)C3)c12 (some centres unmarked),A (A (>90%)),< 1 nM,A (A (>90%)),< 1 nM,> 7.00
CN(C)C(=O)c1cc2c(-c3ccc(C4CCN(c5ccc(C6CCC(=O)NC6=O)c(F)c5)CC4)cc3)cc(C3=CCCN(C(=O)CCn4cccn4)C3)c(F)c2[nH]1 (centres unmarked),A (A (>90%)),< 1 nM,A (A (>90%)),< 1 nM,> 7.00
CN(C)C(=O)c1cc2c(-c3cc(F)c(N4CCC(N5CCN(c6ccc(C7CCC(=O)NC7=O)cc6F)CC5)CC4)cc3F)cc(C3=CCCN(C(=O)CCn4cccn4)C3)c(F)c2[nH]1 (centres unmarked),A (A (>90%)),< 1 nM,A (A (>90%)),–,> 7.00
